In patent US20080299108A1, “Peptides for Diagnostic and Therapeutic Methods for Celiac Sprue” (priority 2005, published 2008):

Columns and labels:
[1] = tested on: rat small intestinal brush-border membrane (BBM) enzymes; experiment: Rat BBM digestion of peptides from α2-gliadin (12 ng/μl BBM protein); assay type: in vitro ADME
Procedure: BBM fractions were prepared from rat small intestinal mucosa.

[2] = tested on: pepsin, trypsin, chymotrypsin, elastase and carboxypeptidase; experiment: Gastric and pancreatic protease digestion
rat jejunum = experiment: In vivo intestinal perfusion in intact adult rats; details: 15-20 cm segment of jejunum, residence time 20 min
[3] = tested on: BBM prepared from human intestinal biopsies; experiment: Digestion with BBM preparations from human intestinal biopsies

Q: With “LQLQPFPQPQLPYPQPQLPYPQPQLPYPQPQPF [33-mer]” as the sequence, how does the half-life of digestion [1] read?
A: Its half-life of digestion is greater than 20 h.

Q: And the “stability toward gastric and pancreatic proteases” value [2]?
A: The value was “remained intact despite prolonged exposure to proteases”.

Q: And the “stability in the perfusion experiment” value (rat jejunum)?
A: The value was “most of the 33-mer gliadin peptide remained intact”.

Q: And the “stability toward human BBM” value ([3]; 100 μM peptide, 19 hours, 37° C.)?
A: The value was “remained largely intact”.

Q: What about the “Amount of Peptides Digested after 15 hours” value (from here on “Amount of Peptides Digested”) ([3]; H1P0) of the same sequence?
A: Its value is less than 20%.

Q: And the “Amount of Peptides Digested” value ([3]; H2P0)?
A: The value was less than 20%.

Q: And the “Amount of Peptides Digested” value ([3]; H3P0)?
A: The value was less than 20%.

Q: What about the “Amount of Peptides Digested” value ([3]; H4P0) of the same sequence?
A: Its value is less than 20%.

Q: What about the “Amount of Peptides Digested” value ([3]; H5P0) of the same sequence?
A: Its value is less than 20%.
